The target in data set [1] is C-C chemokine receptor type 2 (Homo sapiens, UniProt P41597). Format: cell membranes, Membrane. The note with it: cho-k1. Note: in other assays of this panel Not Active means under 50% inhibition at 10 µM.
The target of a further data set is Cytochrome P450 3A4 (Homo sapiens, UniProt P08684). The note with it: bti-tn-5b1-4. Note: in other assays of this panel Not Active means under 50% inhibition at 10 µM.
In data set [2] the target is Amine oxidase [flavin-containing] A (Homo sapiens, UniProt P21397). Briefly: DRUGMATRIX: Monoamine Oxidase MAO-A enzyme inhibition (substrate: Kynuramine). The note with it: bti-tn-5b1-4; Not Active = under 50% inhibition at 10 µM.

By UniProt entry, the sequences of proteins in these tests, tags left out. Where a name states a change or a piece, a line headed by the entry shows the natural chain unless it says otherwise.
UniProt P41597: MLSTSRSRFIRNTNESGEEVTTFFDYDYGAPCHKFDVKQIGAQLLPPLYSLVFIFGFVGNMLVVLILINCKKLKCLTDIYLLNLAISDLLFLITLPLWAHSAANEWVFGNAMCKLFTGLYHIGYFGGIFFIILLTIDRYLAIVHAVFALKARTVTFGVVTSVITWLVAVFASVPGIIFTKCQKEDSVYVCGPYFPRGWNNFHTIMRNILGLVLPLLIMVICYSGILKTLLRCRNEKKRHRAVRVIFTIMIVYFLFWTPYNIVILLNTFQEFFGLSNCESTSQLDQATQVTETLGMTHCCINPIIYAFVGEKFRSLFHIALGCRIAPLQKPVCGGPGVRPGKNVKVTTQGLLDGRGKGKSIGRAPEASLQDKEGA
UniProt P08684, whole entry: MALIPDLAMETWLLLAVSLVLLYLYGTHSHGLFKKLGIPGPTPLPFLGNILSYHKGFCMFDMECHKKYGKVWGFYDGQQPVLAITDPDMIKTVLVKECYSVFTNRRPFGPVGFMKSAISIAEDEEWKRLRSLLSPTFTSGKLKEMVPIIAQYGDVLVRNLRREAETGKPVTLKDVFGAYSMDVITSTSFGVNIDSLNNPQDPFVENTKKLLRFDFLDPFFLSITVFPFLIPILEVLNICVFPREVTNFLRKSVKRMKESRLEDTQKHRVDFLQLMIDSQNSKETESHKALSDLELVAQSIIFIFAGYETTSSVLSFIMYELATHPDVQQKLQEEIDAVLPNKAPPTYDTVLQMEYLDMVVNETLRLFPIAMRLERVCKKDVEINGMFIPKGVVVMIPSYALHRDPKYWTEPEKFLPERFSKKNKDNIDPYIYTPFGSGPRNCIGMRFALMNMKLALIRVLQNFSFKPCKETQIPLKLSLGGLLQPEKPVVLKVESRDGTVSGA
UniProt P21397, whole entry: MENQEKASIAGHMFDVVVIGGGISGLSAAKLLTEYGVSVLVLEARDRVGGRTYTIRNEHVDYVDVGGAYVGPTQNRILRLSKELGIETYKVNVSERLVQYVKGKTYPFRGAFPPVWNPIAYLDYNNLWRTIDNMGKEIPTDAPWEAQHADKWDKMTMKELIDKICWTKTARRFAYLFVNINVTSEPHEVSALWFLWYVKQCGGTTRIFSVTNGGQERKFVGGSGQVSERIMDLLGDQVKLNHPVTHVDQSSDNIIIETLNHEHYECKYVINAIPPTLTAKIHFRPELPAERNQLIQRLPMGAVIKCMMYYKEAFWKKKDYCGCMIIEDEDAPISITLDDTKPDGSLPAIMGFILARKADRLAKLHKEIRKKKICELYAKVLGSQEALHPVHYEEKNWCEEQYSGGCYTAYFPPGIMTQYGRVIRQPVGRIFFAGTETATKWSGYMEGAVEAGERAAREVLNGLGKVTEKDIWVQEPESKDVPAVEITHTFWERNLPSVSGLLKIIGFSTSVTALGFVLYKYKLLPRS

Turning to `CCCCC(=O)N(Cc1ccc(-c2ccccc2-c2nnn[nH]2)cc1)[C@H](C(=O)O)C(C)C`, the IC50 result in data set [1] was “Not Active”.
As for `CCC(C)n1ncn(-c2ccc(N3CCN(c4ccc(OCC5COC(Cn6cncn6)(c6ccc(Cl)cc6Cl)O5)cc4)CC3)cc2)c1=O` (centres undefined) [ITRACONAZOLE], the Ki result on Cytochrome P450 3A4 is “Note: corresponding IC50 reported as Active”.
Regarding `CCCCc1nc(Cl)c(CO)n1Cc1ccc(-c2ccccc2-c2nnn[nH]2)cc1` [LOSARTAN], in data set [1], the IC50 result is “Not Active”.
In the case of `NNCCc1ccccc1` [PHENELZINE], the Ki result in data set [2] was “Note: corresponding IC50 reported as Active”.

The record behind these values is ChEMBL document CHEMBL1909046, “DrugMatrix in vitro pharmacology data”.
